Source: patent publication US6355624B1, “Measurement of plasma volume” (University Wales College of Medicine, priority 1997, dated 2002)

Experiment: Volume of distribution of FITC-Elohaes compared with Evans Blue labelled albumin in healthy and endotoxic newborn piglets
Settings: endotoxic (E. coli) newborn piglets, approx 1.0 mg/kg, individual piglets and mean
Method: Seventeen piglets were used in this study. The animals were randomised into two groups, a healthy (control) group and an Escherichia coli (endotoxic) group. The animals of the endotoxic group received a bolus injection of E. coli (1.667 μg/kg), followed by a continuous infusion of E. coli (1.667 μg/kg/hr) throughout the experiment. The control group received the same dose of isotonic saline injection and infusion. Approximately 30 minutes thereafter, a sample of blood (0.6 ml) was obtained from the femoral vein catheter prior to injection of the plasma marker. A volume between 0.5 ml and 1.0 ml of the indicator was injected {of approximately 1.0 mg/kg for both plasma markers} via the femoral vein catheter into the bloodstream. The catheter was then flushed clean with an equal volume of isotonic saline. […] As before, following the withdrawal of each sample, the catheter was flushed with an equal volume of isotonic saline. Samples were obtained at various time intervals over a 6 hour period, the majority were collected within the first hour after administration of the plasma marker. Blood samples were then centrifuged at approximately 2500 r.p.m for 10-15 minutes and plasma/serum withdrawn.

Cc1cc(-c2ccc(/N=N/c3ccc4c(S(=O)(=O)O)cc(S(=O)(=O)O)c(N)c4c3O)c(C)c2)ccc1/N=N/c1ccc2c(S(=O)(=O)O)cc(S(=O)(=O)O)c(N)c2c1O [Evans Blue, reference compound]
VD: 118.2 mL/kg and 111.5 mL/kg

“And” between values parts separate entries of the source, which are not always exact repeats. Equal values may be shown once.
